Source: article PMC11032371

Chains of the proteins cited; added tags and fusions are not shown. Residues count along the entry.
UniProt Q6A037, 613-893: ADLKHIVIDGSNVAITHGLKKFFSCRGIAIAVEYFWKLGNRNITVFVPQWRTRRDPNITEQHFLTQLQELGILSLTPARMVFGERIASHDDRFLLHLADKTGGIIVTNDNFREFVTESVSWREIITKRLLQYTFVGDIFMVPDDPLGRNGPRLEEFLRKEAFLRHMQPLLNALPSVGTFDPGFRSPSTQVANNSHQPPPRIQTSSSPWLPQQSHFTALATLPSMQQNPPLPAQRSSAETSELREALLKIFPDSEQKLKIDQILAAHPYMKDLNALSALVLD

Biological target: TF-N4BP1 (613–893) (mouse) (UniProt Q6A037)
Assay: SPR; Biacore S200; TF-N4BP1 fragment amine-coupled to a CM5 chip, mono- and diUb flowed over at 30 μl/min; HBS-P+ (10 mM HEPES pH 7.4, 150 mM NaCl, 0.05% Tween 20), 25 °C; KD from plateau levels

Substance: K63-diUb (from UniProt P0CG48 1-76)
- Kd: 10.8 µM

Substance: K48-diUb (from UniProt P0CG48 1-76)
- Kd: 34.2 µM
